# Test system: TrkA receptors
# Test: TrkA receptor tyrosine phosphorylation in PC12 (615) cells (anti-pan-Trk immunoprecipitation, PY99 anti-phosphotyrosine immunoblot)
# Type: cell-based
# Description: Stably transfected PC12 cells expressing high levels of TrkA (615) were treated with the indicated compounds for 2 hours. The cells were subsequently harvested in lysis buffer as described in the Materials and Methods of Example 1. Lysates were immunoprecipitated with anti-pan Trk rabbit antiserum. Immunocomplexes were analyzed by immunoblotting with anti-phosphotyrosine antibody (PY99).
# In FIG. 2A, different concentrations of adenosine were administered to PC12615 cells for 2 hours or NGF (1 ng/ ml) for 10 min. Cells were also treated with CGS21680 at the indicated dose for 2 hours. In FIG. 2B, PC12 cells (615) were treated with adenosine (10 μM) for various times or with 5 ng/ml NGF for 10 min. Phosphorylated TrkA receptors were detected by immunoblot analysis using PY99 anti-phosphotyrosine antibodies. […]
# In FIG. 3A, PC12 cells (615) were treated with the A2A agonist CGS 21680 (10 nM) and an A1 agonist CPA (10 nM) for 2 hr. […] Activation of TrkA was assessed by immunoprecipitation and immunoblot analysis using PY99 anti-phosphotyrosine antibody.
# In FIG. 7A, different concentrations of PACAP27 were administered to PC12 (615) cells for 2 hours or NGF (5 ng/ml) for 10 min. […] Phosphorylated TrkA receptors were detected by immunoblot analysis using PY99 anti-phosphotyrosine antibodies. […]
# Immunoprotection and Immunoblotting. […] Equivalent amounts of protein were analyzed for each condition. […]
compound,measurement,value
CCCN1CCC[C@@H]2Cc3n[nH]cc3C[C@H]21 [quinpirole],Activation of TrkA receptors (tyrosine phosphorylation),not observed
